According to patent US9567317B2, “Multicomponent crystalline system comprising nilotinib and selected co-crystal formers” (BASF SE, priority 2012, dated 2017):

Key:
[1] = Aqueous solubility determination; conditions: corrected to the effective solubility of the free drug substance, after two hours equilibration time

Substance | highest water up-take (dynamic vapor sorption, at 95% relative humidity) | water content change (water uptake) (relative humidity changed from 0 to 95% according to the measurement program (FIG. 4)) | Aqueous Solubility at 25° C. [1]
Nilotinib Hydrochloride-fumaric Acid Co-crystal | about 0.4% | Δm = 0.4% | 
Nilotinib Hydrochloride-maleic Acid Co-crystal |  |  | 425 µg/mL
